Assay results as given in US6362395.

Target: calmodulin (unlabeled, as used in the gel mobility-shift and kinase assays of Example 2), P04353

B1: lily CCaMK (calcium/calmodulin-dependent protein kinase), wild-type (1-520), recombinant, expressed in E. coli (protein)
chain: MSRHESRKLSDDYEVVDVLGKGGFSVVRRGISKSRGKNNDVAIKTLRRYGYTLPGAQRSQPGQRGLSPLGMPTLKQVSVSDALLTNEILVMRRIVEDVSPHPNVIHLHDVYEDANGVHLVLELCSGGELFDRIVAQDRYSESEAAEVVQQIASGLAALHKSTIIHRDLKPENCLFLNQEKRSTLKIMDFGLSSVEDFTDPIVALFGSIDYVSPEALSQRQVSSASDMWSLGVILYILLSGCPPFHAPSNREKQQRILAGDFSFEEHTWKTITSSAKDLISSLLSVDPYKRPTANDLLKHPWVIGDSAKQELIEPEVVSRLRSFNARRKLRAAAIASVLSSKVLLRTKKLKNLLGSHDMKSEELENLRAHFKRICANGDNATLPEFEEVLKAMKMNSLIPLAPRVFDLFDNNRDGTIDMREILCGLSNLRNSQGDDALQLCFQMYDADRSGCISKEELASMLRALPEDCVPADITEPGKLDEIFDQMDANSDGVVTFDEFKAAMQRDSSLQDVVLSSLRTI
- Ca2+-dependent autophosphorylation of CCaMK with 1 µM calmodulin: inhibited to basal levels (0.061 mol 32P/mol of CCaMK)
- calmodulin concentration at which kinase activity saturates, histone IIAS phosphorylation: around 1.0 µM
- concentration of calmodulin required for half-maximal activity (Ka), histone IIAS phosphorylation: approximately 0.2 µM
